Reference: ChEMBL document CHEMBL1145889, “Potent and selective inhibitors of platelet-derived growth factor receptor phosphorylation. 3. Replacement of quinazoline moiety and improvement of metabolic polymorphism of 4-[4-(N-substituted (thio)carbamoyl)-1-piperazinyl]-6,7-dimethoxyquinazoline derivatives” (J Med Chem, 2003)
pIC50: −log10 of the molar value.

By UniProt entry, the sequences of proteins in these tests, tags left out.
UniProt P09619, whole entry: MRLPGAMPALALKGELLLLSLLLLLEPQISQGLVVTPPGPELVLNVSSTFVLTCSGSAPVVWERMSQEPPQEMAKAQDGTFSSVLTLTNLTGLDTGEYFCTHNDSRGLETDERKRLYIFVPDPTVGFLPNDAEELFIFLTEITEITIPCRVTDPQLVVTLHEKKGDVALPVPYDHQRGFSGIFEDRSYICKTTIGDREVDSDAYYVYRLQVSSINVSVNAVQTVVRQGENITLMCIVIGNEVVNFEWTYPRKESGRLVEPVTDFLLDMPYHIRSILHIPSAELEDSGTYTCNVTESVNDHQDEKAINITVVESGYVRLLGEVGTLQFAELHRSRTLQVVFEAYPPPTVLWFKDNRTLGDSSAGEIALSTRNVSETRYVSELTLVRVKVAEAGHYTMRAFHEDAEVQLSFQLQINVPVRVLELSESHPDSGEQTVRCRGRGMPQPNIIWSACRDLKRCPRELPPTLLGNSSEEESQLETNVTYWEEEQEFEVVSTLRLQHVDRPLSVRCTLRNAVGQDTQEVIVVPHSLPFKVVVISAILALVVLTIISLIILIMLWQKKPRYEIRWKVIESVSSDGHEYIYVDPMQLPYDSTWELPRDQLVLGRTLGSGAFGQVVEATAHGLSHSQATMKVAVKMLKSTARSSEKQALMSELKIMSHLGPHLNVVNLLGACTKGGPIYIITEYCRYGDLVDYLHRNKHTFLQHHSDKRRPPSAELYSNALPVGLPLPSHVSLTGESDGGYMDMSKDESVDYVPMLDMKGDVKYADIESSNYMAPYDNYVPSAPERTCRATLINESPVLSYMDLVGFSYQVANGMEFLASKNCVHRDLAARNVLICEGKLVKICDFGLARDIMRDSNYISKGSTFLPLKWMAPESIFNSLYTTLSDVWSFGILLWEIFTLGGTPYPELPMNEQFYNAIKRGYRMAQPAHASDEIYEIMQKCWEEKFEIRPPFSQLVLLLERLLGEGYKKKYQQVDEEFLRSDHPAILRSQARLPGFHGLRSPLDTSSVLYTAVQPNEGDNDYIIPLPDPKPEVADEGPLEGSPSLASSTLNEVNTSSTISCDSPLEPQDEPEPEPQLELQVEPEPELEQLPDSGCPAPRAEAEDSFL

The compounds below were run against Platelet-derived growth factor receptor beta (Homo sapiens, UniProt P09619).
Assay type: cell-based

Compared with `COc1cc2nncc(N3CCN(C(=O)Nc4ccc(Oc5ccccc5)cc4)CC3)c2cc1OC`, `COc1cc2nccc(N3CCN(C(=O)Nc4ccc(Oc5ccccc5)cc4)CC3)c2cc1OC` is 0.65 log units higher in pIC50: 6.09 for the first, 6.74 for the second.

First: O=C(Nc1ccc(Oc2ccccc2)cc1)N1CCN(c2cncc3ccccc23)CC1
Second: O=C(Nc1ccc(Oc2ccccc2)cc1)N1CCN(c2nncc3ccccc23)CC1
The pIC50 of the first is lower: less than 4.52 for the first, 4.99 for the second.

`S=C(NCc1ccccc1)N1CCN(c2ccnc3ccccc23)CC1` and `S=C(NCc1ccccc1)N1CCN(c2ccnc3ccc(Cl)cc23)CC1` cannot be ordered by pIC50: less than 4.52 for the first, less than 4.52 for the second.

Compared with `O=C(Nc1ccc(Oc2ccccc2)cc1)N1CCN(c2ccnc3ccccc23)CC1`, `O=C(Nc1ccc(Oc2ccccc2)cc1)N1CCN(c2ccnc3ccc(Cl)cc23)CC1` is 0.32 log units higher in pIC50: 6.57 for the first, 6.89 for the second. The second is the more potent here.

First: CCOc1cc2ncnc(N3CCN(/C(S)=N\Cc4ccccc4)CC3)c2cc1OC
Second: CCOc1cc2c(N3CCN(/C(S)=N\Cc4ccccc4)CC3)ncnc2cc1OC
The pIC50 of the first is 0.61 log units higher: 6.82 for the first, 6.21 for the second. The first is the more potent here.

First: Cn1c(=O)n(C)c2cc3c(N4CCN(C(=O)Nc5ccc(Oc6ccccc6)cc5)CC4)ncnc3cc21
Second: CCn1c(=O)n(C)c2cc3c(N4CCN(C(=O)Nc5ccc(Oc6ccccc6)cc5)CC4)ncnc3cc21
The pIC50 of the first is 0.52 log units higher: 7.00 for the first, 6.48 for the second. The first is the more potent here.

`COc1cc2cncc(N3CCN(C(=O)Nc4ccc(Oc5ccccc5)cc4)CC3)c2cc1OC` and `COc1cc2nc(Cl)nc(N3CCN(C(=O)Nc4ccc(Oc5ccccc5)cc4)CC3)c2cc1OC` cannot be ordered by pIC50: less than 4.52 for the first, less than 4.52 for the second.

Going from `CCCn1c(=O)n(CCC)c2cc3c(N4CCN(C(=O)Nc5ccc(Oc6ccccc6)cc5)CC4)ncnc3cc21` to `CCCCn1c(=O)n(CCCC)c2cc3c(N4CCN(C(=O)Nc5ccc(Oc6ccccc6)cc5)CC4)ncnc3cc21`, the pIC50 falls from 4.68 to less than 4.52.

`S=C(NCc1ccccc1)N1CCN(c2ncnc3cc4c(cc23)OCCO4)CC1` and `S=C(NCc1ccccc1)N1CCN(c2ncnc3cc4c(cc23)OCO4)CC1` cannot be ordered by pIC50: less than 4.52 for the first, less than 4.52 for the second.

`O=C(Nc1ccc(Oc2ccccc2)cc1)N1CCN(c2ncnc3cc4c(cc23)OCCO4)CC1` and `O=C(Nc1ccc(Oc2ccccc2)cc1)N1CCN(c2ncnc3cc4c(cc23)OCO4)CC1` are within 0.2 log units of each other in pIC50: 7.15 for the first, 7.05 for the second.

`COCCOc1cc2ncnc(N3CCN(/C(S)=N\Cc4ccc5c(c4)OCO5)CC3)c2cc1OC` and `COCCOc1cc2c(N3CCN(/C(S)=N\Cc4ccc5c(c4)OCO5)CC3)ncnc2cc1OC` are the same in pIC50: 7.10 for the first, 7.10 for the second.

Going from `CCOc1cc2ncnc(N3CCN(C(=S)NCc4ccccc4)CC3)c2cc1OCC` to `COc1cc2c(N3CCN(C(=S)NCc4ccccc4)CC3)ncnc2cc1C`, the pIC50 falls from 6.51 to 5.81 (0.70 log units).

Going from `CCOC(=O)c1cnc2cc(OC)c(OC)cc2c1N1CCN(C(=S)NCc2ccccc2)CC1` to `CCOC(=O)c1cnc2cc(OC)c(OC)cc2c1N1CCN(C(=O)Nc2ccc(Oc3ccccc3)cc2)CC1`, the pIC50 rises from 5.49 to 7.05 (1.56 log units). The second is the more potent here.

Compared with `CCn1c(=O)n(C)c2cc3c(N4CCN(C(=S)NCc5ccccc5)CC4)ncnc3cc21`, `CCn1cnc2cc3c(N4CCN(C(=S)NCc5ccccc5)CC4)ncnc3cc21` is 1.28 log units lower in pIC50: 6.85 for the first, 5.57 for the second.

First: O=C(Nc1ccc(Oc2ccccc2)cc1)N1CCN(c2ccnc3c(Cl)cccc23)CC1
Second: O=C(Nc1ccc(Oc2ccccc2)cc1)N1CCN(c2ccnc3cc(Cl)ccc23)CC1
The pIC50 of the first is lower: less than 5.00 for the first, 7.00 for the second. The second is the more potent here.

Going from `CCNc1cc2ncnc(N3CCN(/C(S)=N\Cc4ccccc4)CC3)c2cc1N` to `CCNc1cc2ncnc(N3CCN(C(=S)NCc4ccccc4)CC3)c2cc1[N+](=O)[O-]`, the pIC50 falls from 5.84 to less than 4.52. The first is the more potent here.

Compared with `O=C(Nc1ccc(Oc2ccccc2)cc1)N1CCN(c2ccnc3cc(C(F)(F)F)ccc23)CC1`, `O=C(Nc1ccc(Oc2ccccc2)cc1)N1CCN(c2cc(C(F)(F)F)nc3ccccc23)CC1` is lower in pIC50: 6.26 for the first, less than 4.52 for the second.

Compared with `COc1cc(OC)c2ncnc(N3CCN(C(=O)Nc4ccc(Oc5ccccc5)cc4)CC3)c2c1`, `COc1ccc2c(N3CCN(C(=O)Nc4ccc(Oc5ccccc5)cc4)CC3)ncnc2c1OC` is lower in pIC50: 4.96 for the first, less than 4.52 for the second.

Going from `O=C(Nc1ccc(Oc2ccccc2)cc1)N1CCN(c2ncnc3[nH]c(=O)[nH]c23)CC1` to `O=C(Nc1ccc(Oc2ccccc2)cc1)N1CCN(c2ncnc3nc[nH]c23)CC1`, the pIC50 rises from less than 5.00 to 6.31. The second is the more potent here.

Going from `COc1cc2ncnc(N3CCN(C(=O)Nc4ccc(Cl)cc4)CC3)c2cc1OC` to `COc1cc2nc(C)nc(N3CCN(C(=O)Nc4ccc(Oc5ccccc5)cc4)CC3)c2cc1OC`, the pIC50 falls from 5.96 to less than 4.52.

`O=C(Nc1ccc(Oc2ccccc2)cc1)N1CCN(c2ncnc3ccccc23)CC1` and `O=C(Nc1ccc(Oc2ccccc2)cc1)N1CCN(c2ncnc3cc4ccccc4cc23)CC1` are within 0.2 log units of each other in pIC50: 6.42 for the first, 6.41 for the second.

Going from `Nc1nc(N2CCN(C(=O)Nc3ccc(Oc4ccccc4)cc3)CC2)c2[nH]cnc2n1` to `O=C(Nc1ccc(Oc2ccccc2)cc1)N1CCN(c2ncnc3n[nH]cc23)CC1`, the pIC50 rises from 5.82 to 6.77 (0.95 log units). The second is the more potent here.

`S=C(NCc1ccccc1)N1CCN(c2ccnc3cc(Cl)ccc23)CC1` and `S=C(NCc1ccccc1)N1CCN(c2ncnc3ccccc23)CC1` cannot be ordered by pIC50: less than 4.52 for the first, less than 4.52 for the second.

Compared with `CCn1c(=O)n(CC)c2cc3c(N4CCN(C(=O)Nc5ccc(Oc6ccccc6)cc5)CC4)ncnc3cc21`, `CCn1c(=O)[nH]c2cc3c(N4CCN(C(=O)Nc5ccc(Oc6ccccc6)cc5)CC4)ncnc3cc21` is lower in pIC50: 6.11 for the first, less than 4.52 for the second.

`Cn1ncc2c(N3CCN(C(=O)Nc4ccc(Oc5ccccc5)cc4)CC3)ncnc21` and `Cn1cnc2c(N3CCN(C(=O)Nc4ccc(Oc5ccccc5)cc4)CC3)ncnc21` cannot be ordered by pIC50: less than 4.52 for the first, less than 4.52 for the second.

Going from `O=C(Nc1ccc(Oc2ccccc2)cc1)N1CCN(c2ncnc3ncccc23)CC1` to `O=C(Nc1ccc(Oc2ccccc2)cc1)N1CCN(c2ncnc3cnc(F)cc23)CC1`, the pIC50 rises from less than 4.52 to 4.88. The second is the more potent here.

`COc1cc2nc(N3CCOCC3)nc(N3CCN(C(=O)Nc4ccc(Oc5ccccc5)cc4)CC3)c2cc1OC` and `COc1cc2c(N3CCN(C(=O)Nc4ccc(Oc5ccccc5)cc4)CC3)ncnc2c(OC)c1OC` cannot be ordered by pIC50: less than 4.52 for the first, less than 4.52 for the second.

`O=C(Nc1ccc(Oc2ccccc2)cc1)N1CCN(c2nnc(Cl)c3ccccc23)CC1` and `O=C(Nc1ccc(Oc2ccccc2)cc1)N1CCN(c2nnc(Cc3ccccc3)c3ccccc23)CC1` cannot be ordered by pIC50: less than 4.52 for the first, less than 4.52 for the second.

First: S=C(NCc1ccccc1)N1CCN(c2ncnc3cc4ccccc4cc23)CC1
Second: COc1cc2ncnc(N3CCN(C(=S)NCc4ccccc4)CC3)c2cc1OS(C)(=O)=O
The pIC50 of the first is 0.90 log units higher: 5.89 for the first, 4.99 for the second. The first is the more potent here.

`CCn1nnc2cc3c(N4CCN(C(=O)Nc5ccc(Oc6ccccc6)cc5)CC4)ncnc3cc21` and `CCNc1cc2ncnc(N3CCN(C(=O)Nc4ccc(Oc5ccccc5)cc4)CC3)c2cc1[N+](=O)[O-]` are within 0.2 log units of each other in pIC50: 6.54 for the first, 6.70 for the second.

For `S=C(NCc1ccccc1)N1CCN(c2ncnc3nc[nH]c23)CC1`, the pIC50 was less than 4.52.
